Test results taken from ChEMBL document CHEMBL3608278 (J Med Chem, 2015).

Amino acid sequences for entries named in this document (tags omitted).
UniProt P22001, whole entry: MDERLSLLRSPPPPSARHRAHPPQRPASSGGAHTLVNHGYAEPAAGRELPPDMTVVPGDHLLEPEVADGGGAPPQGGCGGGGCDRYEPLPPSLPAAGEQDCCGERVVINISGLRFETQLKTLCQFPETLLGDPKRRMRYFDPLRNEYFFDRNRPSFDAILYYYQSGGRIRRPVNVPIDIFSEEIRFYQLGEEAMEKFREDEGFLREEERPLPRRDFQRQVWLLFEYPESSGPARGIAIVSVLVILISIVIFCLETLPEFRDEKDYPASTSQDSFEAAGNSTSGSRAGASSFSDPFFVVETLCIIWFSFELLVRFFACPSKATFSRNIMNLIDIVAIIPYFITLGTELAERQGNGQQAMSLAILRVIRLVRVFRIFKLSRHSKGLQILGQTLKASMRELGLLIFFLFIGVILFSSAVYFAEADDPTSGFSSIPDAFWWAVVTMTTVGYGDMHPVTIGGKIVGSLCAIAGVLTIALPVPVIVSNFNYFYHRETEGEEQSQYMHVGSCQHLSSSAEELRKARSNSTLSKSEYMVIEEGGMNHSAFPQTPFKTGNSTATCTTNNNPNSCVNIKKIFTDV

Columns and labels:
[1] = Half life in rat; type: ADME, organism-based; settings: in vivo
[2] = target: T1, Potassium voltage-gated channel subfamily A member 3 (Homo sapiens, UniProt P22001); parameters: species or system Blood
[3] = target: T1, Potassium voltage-gated channel subfamily A member 3; experiment: cell-based; parameters: species or system Blood
[4] = target: T1, Potassium voltage-gated channel subfamily A member 3; type: cell-based, CHO-K1

| IC50 [2] [nM] | IC50 [3] [nM] | IC50 [4] [nM] | Compound | half-life [1] [h] |
| --- | --- | --- | --- | --- |
| – | – | – | CC[C@H](C)[C@@H]1NC(=O)[C@@H](NC(=O)[C@H](CO)NC(=O)[C@H](CCCNC(=N)N)NC(=O)COCCOCCNC(=O)[C@@H](N)Cc2ccc(OP(=O)(O)O)cc2)CSSC[C@@H](C(=O)O)NC(=O)[C@H]([C@@H](C)O)NC(=O)CNC(=O)[C@@H]2CSSC[C@@H]3NC(=O)[C@H](CCC(N)=O)NC(=O)[C@H](Cc4ccccc4)NC(=O)[C@H](C)NC(=O)[C@H]([C@@H](C)O)NC(=O)[C@H](CSSC[C@H](NC(=O)[C@H](Cc4ccccc4)NC(=O)[C@H](CO)NC(=O)[C@H](CC(C)C)NC(=O)[C@H](CCCNC(=N)N)NC(=O)[C@H](Cc4ccc(O)cc4)NC(=O)[C@H](CCCCN)NC(=O)[C@H](CCSC)NC(=O)[C@H](CO)NC(=O)[C@H](Cc4cnc[nH]4)NC(=O)[C@H](CCCCN)NC3=O)C(=O)N[C@@H](CCCNC(=N)N)C(=O)N[C@@H](CCCCN)C(=O)N[C@@H]([C@@H](C)O)C(=O)N2)NC(=O)[C@H](CCCNC(=N)N)NC(=O)[C@H](CO)NC(=O)[C@H](CCCCN)NC(=O)[C@@H]2CCCN2C(=O)[C@H]([C@@H](C)CC)NC(=O)[C@H]([C@@H](C)O)NC(=O)[C@H](CC(=O)O)NC1=O | < 1 |
| 0.573 | 0.357 | 0.207 | CC[C@H](C)[C@@H]1NC(=O)[C@@H](NC(=O)[C@H](CO)NC(=O)[C@@H](N)CCCNC(=N)N)CSSC[C@@H](C(=O)O)NC(=O)[C@H]([C@@H](C)O)NC(=O)CNC(=O)[C@@H]2CSSC[C@@H]3NC(=O)[C@H](CCC(N)=O)NC(=O)[C@H](Cc4ccccc4)NC(=O)[C@H](C)NC(=O)[C@H]([C@@H](C)O)NC(=O)[C@H](CSSC[C@H](NC(=O)[C@H](Cc4ccccc4)NC(=O)[C@H](Cc4cccc5ccccc45)NC(=O)[C@H](CC(C)C)NC(=O)[C@H](CCCNC(=N)N)NC(=O)[C@H](Cc4ccc(O)cc4)NC(=O)[C@H](CCCCN)NC(=O)[C@H](CCSC)NC(=O)[C@H](CO)NC(=O)[C@H](Cc4cnc[nH]4)NC(=O)[C@H](CCCCN)NC3=O)C(=O)N[C@@H](CCCNC(=N)N)C(=O)N[C@@H](CCCCN)C(=O)N[C@@H]([C@@H](C)O)C(=O)N2)NC(=O)[C@H](CCCNC(=N)N)NC(=O)[C@H](CO)NC(=O)[C@H](CCCCN)NC(=O)[C@@H]2CCCN2C(=O)[C@H]([C@@H](C)CC)NC(=O)[C@H]([C@@H](C)O)NC(=O)[C@H](CC(=O)O)NC1=O | – |
